ChEMBL document CHEMBL5726931, “Compounds” (2019)

Protein sequences, listed by entry. Tags and fused reporters are not part of them.
UniProt Q96KS0, whole entry: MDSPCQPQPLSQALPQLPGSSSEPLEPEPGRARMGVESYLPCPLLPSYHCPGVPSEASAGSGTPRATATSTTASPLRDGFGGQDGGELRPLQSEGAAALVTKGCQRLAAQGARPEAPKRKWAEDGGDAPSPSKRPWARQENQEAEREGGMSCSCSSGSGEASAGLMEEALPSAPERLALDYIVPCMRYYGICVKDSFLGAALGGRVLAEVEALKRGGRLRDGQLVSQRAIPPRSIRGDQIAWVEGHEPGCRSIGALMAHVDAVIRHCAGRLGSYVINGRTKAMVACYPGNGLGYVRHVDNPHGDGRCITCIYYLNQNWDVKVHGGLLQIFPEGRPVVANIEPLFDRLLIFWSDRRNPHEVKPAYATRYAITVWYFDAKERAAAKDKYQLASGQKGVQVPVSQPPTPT

Target: Prolyl hydroxylase EGLN2 (Homo sapiens, UniProt Q96KS0)
Test: PHD1 Enzyme Assay: The IC50 values for the PHD1 enzyme (residues 1-407) were determined by mixing increasing amounts of a compound of the invention with a fixed amount of the enzyme (20 nM final concentration) and peptide substrate (Asp-Leu-Asp-Leu-Glu-Ala-Leu-Ala-Pro-Tyr-Ile-Pro-Ala-Asp-Asp-Asp-Phe-Gln-Leu, 1 μM final concentration) and 2-oxoglutarate (0.5 M final concentration) in an assay …

N#Cc1ccc(-c2cc(OCc3ccccc3)cc3ncnn23)cc1 and CC(C)(C)OC(=O)Nc1cc(-c2ccc(C#N)cc2)n2ncnc2c1 are within 1.5-fold of each other in IC50: 49 nM for the first, 52 nM for the second.

For N#Cc1ccc(-c2cc(NC(=O)CC(F)(F)F)cc3ncnn23)cc1, the IC50 was 28 nM.
